ARFGAP1 inh: rat ARFGAP1 inhibition; actives 0.26% (n = 360,000); AID 651572; Arfgap1-stimulated ARF1 GTP hydrolysis, GDP FP detection; Q62848; inhibition, % at 16.5 µM;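 active = inhibition above a per-plate limit, mean inhibition of low control wells plus 3 SD, cut at about 25% in these data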;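 note: 0% = DMSO wells with enzyme and 100% = wells lacking Arfgap1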
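Assay system: purified rat His6-Arfgap1 residues 1-136 (GAP domain); Reagent: human Δ17 ARF1 bound to GTP; Dosing: 16.5 µM single point, 1.26% DMSO; Times: GTP hydrolysis reaction 2 h at 25 °C; Signal: FP, GDP Alexa 633 tracer displaced from anti-GDP antibody, 620/688 nm; Measure: % inhibition from polarization.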
MC4R antag cAMP: blocks human MC4R cAMP signaling | MC4R-expressing cells, MTII-stimulated cAMP, LANCE TR-FRET | P32245 | AID 540295 | inhibition, % at 6.5 µM | actives 0.48% (n = 360,000);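 active = inhibition above its plate's cutoff, the mean of tested wells on that plate plus 3 SD, cut at about 29% in these data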;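 note: 0% = Melanotan II alone and 100% = Melanotan II plus saturating MCL0020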
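system = U2OS cells with stable human MC4R expression | also added = Melanotan II challenge after compound preincubation | dosing = one concentration, 6.5 µM nominal | incubation = compound 30 min, challenge 1 h, detection 1 h | measured by = TR-FRET with Eu-cAMP and labeled anti-cAMP, 671 nm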
Yeast UUG start: alters start codon recognition fidelity in yeast. 350,000 tested, 0.13% active. activity score, % at 18.7 µM. S. cerevisiae UUG-firefly luciferase reporter, luminescence/redox ratio;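 active = replicate mean at a twofold rise or more, about +100% in these data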;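 also: firefly luciferase made from a UUG start codon reports start codon fidelity; reporter light over untreated wells divided by growth signal over untreated wells; some hits fall short of that in this replicate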
CendR NRP1 mod: modulators of CendR peptide binding to human neuropilin-1; inhibition, % at 25 µM; O14786; actives 0.85% (n = 360,000); FAM-RPARPAR peptide binding to NRP-1, fluorescence polarization; AID 602438;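 active = inhibition or corrected inhibition above about 18%, plus a signal ratio from 0.5 to 1.5, limit read from the data, passing the limit was not always enough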
ASAP1 GAP inh: ASAP1 ArfGAP inhibition; Q9ULH1; ASAP1-stimulated ARF1 GTP hydrolysis, GDP FP detection; inhibition, % at 16.5 µM; actives 0.19% (n = 360,000); in the data active = inhibition above about 25%;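 note: 0% = vehicle with enzyme and substrate and 100% = no enzyme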
MC4R ag barr: activates human MC4R beta-arrestin recruitment; P32245; actives 0.98% (n = 360,000); activation, % at 8.9 µM; U2OS MC4R beta-arrestin complementation, luminescence; percent of melanotan II response, DMSO zero;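 active = activation above a per-plate cutoff, the mean activation of sample wells on that plate plus 3 SD, cut at about 8% in these data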
MC4R barr ag: human MC4R beta-arrestin agonism confirmation | shares compounds with MC4R ag barr | actives 31% (n = 2,400) | activation, % at 8.9 µM | U2OS MC4R beta-arrestin recruitment, luminescence; scaled DMSO 0%, Melanotan II 100%;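 active = mean activation across replicates above the hit cutoff set in the earlier primary screen, cut at about 8% in these data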
MOR DOR agonist: OPRM1-OPRD1 heterodimer agonism counter-screen; actives 5.8% (n = 2,400); U2OS PathHunter beta-arrestin, beta-gal luminescence; percent of deltorphin B response, DMSO zero; shares compounds with MC4R ag barr; activation, % at 9.2 µM; AID 602194;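 active = mean activation across replicates exceeds the hit threshold derived in the earlier primary screen, cut at about 18% in these data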;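 note: 100% = deltorphin B at 0.9 µM final and 0% = DMSO alone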
* hit, by the source's call; nt = no result given. A selection: hits, their analogues and other compounds. The true share with any hit is near 2.3%.

SMILES	MC4R barr ag	MOR DOR agonist	ASAP1 GAP inh	CendR NRP1 mod	ARFGAP1 inh	MC4R antag cAMP	Yeast UUG start	MC4R ag barr
CN1CCN(Cc2nc3ccccc3c(=O)n2Cc2nc(-c3cccc([N+](=O)[O-])c3)cs2)CC1	nt	nt	8	-7	2	15	nt	1
O=C(CCN1CCCCC1)NCC[C@@H]1CC[C@@H](NC(=O)c2ccc(F)cc2)[C@H](CO)O1	nt	nt	nt	nt	nt	nt	13	nt
N#C/C(=C\c1ccc([N+](=O)[O-])o1)C(=O)Nc1ccc(F)cc1	14*	14	-10	-129	-12	13	nt	12*
COc1ccc(NC(=O)/C(C#N)=C\c2ccc(Br)o2)cc1	nt	nt	-8	1	10	1	nt	3
CSc1ccccc1OCc1cc(C(=O)NC2CCc3ccccc32)no1 (stereo unspecified)	9.5*	8	-7	0	2	-7	-7	64*
O=C(Nc1ccccc1)N[C@@H]1CC[C@@H](CCNC(=O)c2ccccc2F)O[C@H]1CO	nt	nt	nt	nt	nt	nt	5	nt
c1ccc(COC2CCCN(Cc3nc(Cc4ccccc4)no3)C2)cc1 (stereo unspecified)	1	4	8	1	12	5	nt	9.9*
O=C(CCN1CCCCC1)NCC[C@@H]1CC[C@H](NC(=O)C2CCCC2)[C@H](CO)O1	nt	nt	nt	nt	nt	nt	9	nt
CO[C@H]1CN(C)C(=O)c2cc(NC(C)=O)ccc2OC[C@@H](C)N(Cc2cncnc2)C[C@H]1C	nt	nt	nt	nt	nt	nt	-9	nt
Cc1c(Cl)cccc1N=c1c([N+](=O)[O-])nn(-c2ccccc2)n1O	3	9	0	-7	4	14	-5	24*
COc1ccc(CNC(=S)Nc2cc(OC)ccc2OC)cc1	nt	nt	-7	-3	-3	-4	nt	1
COc1ccc(OC)c(NC(=S)NC(=O)c2ccc(Br)o2)c1	3	19*	2	2	6	12	-16	11*

Arranged by the number under MC4R antag cAMP (largest number first): some entries from above.
| SMILES | MC4R barr ag | ASAP1 GAP inh | CendR NRP1 mod | ARFGAP1 inh | MC4R antag cAMP | Yeast UUG start | MC4R ag barr |
| --- | --- | --- | --- | --- | --- | --- | --- |
| N#C/C(=C\c1ccc([N+](=O)[O-])o1)C(=O)Nc1ccc(F)cc1 | 14* | -10 | -129 | -12 | 13 | nt | 12* |
| COc1ccc(NC(=O)/C(C#N)=C\c2ccc(Br)o2)cc1 | nt | -8 | 1 | 10 | 1 | nt | 3 |
| CSc1ccccc1OCc1cc(C(=O)NC2CCc3ccccc32)no1 (stereo unspecified) | 9.5* | -7 | 0 | 2 | -7 | -7 | 64* |

Copied from the list:
For MC4R antag cAMP, N#C/C(=C\c1ccc([N+](=O)[O-])o1)C(=O)Nc1ccc(F)cc1 shows 13
For MC4R ag barr, COc1ccc(OC)c(NC(=S)NC(=O)c2ccc(Br)o2)c1 shows 11*
For Yeast UUG start, O=C(CCN1CCCCC1)NCC[C@@H]1CC[C@@H](NC(=O)c2ccc(F)cc2)[C@H](CO)O1 shows 13

Continued.
SMILES	MC4R barr ag	MOR DOR agonist	ASAP1 GAP inh	CendR NRP1 mod	ARFGAP1 inh	MC4R antag cAMP	Yeast UUG start	MC4R ag barr
CCC12CCCN3CCC4(C(=C(C(=O)OC)C1)Nc1ccccc14)C32 (stereo unspecified)	6	11	-1	20	-7	-9	nt	10*
CCN1/C(=C/c2ccc3cc(C)ccc3[n+]2CC)Sc2cc(C)c(C)cc21	79*	11	8	-213	-2	-11	nt	29*
CCN1/C(=C/c2ccc3cc(C)ccc3[n+]2CC)Sc2ccccc21	nt	nt	11	-284	12	-34	nt	0
CCCNC(=O)N(C)C[C@@H]1Oc2ncc(-c3ccccc3F)cc2C(=O)N([C@H](C)CO)C[C@@H]1C	nt	nt	nt	nt	nt	nt	11	nt
C[C@H](CO)N1C[C@H](C)[C@@H](CN(C)C(=O)c2ccc(F)cc2)Oc2ncc(C#CCN(C)C)cc2C1=O	nt	nt	nt	nt	nt	nt	-7	nt
C[C@@H]1CCCCO[C@H](CN(C)C(=O)C2CCCCC2)[C@H](C)CN([C@@H](C)CO)C(=O)c2cc(NC(=O)C3CCCCC3)ccc2O1	nt	nt	nt	nt	nt	nt	7	nt
Cc1nn(Cc2ccc(F)cc2)c2sc(C(=O)Nc3nccs3)cc12	2	5	17	0	4	3	nt	13*
Cc1nn(Cc2ccccc2Cl)c2sc(C(=O)Nc3nccs3)cc12	nt	nt	-7	3	-5	-6	nt	7
COc1ccc(CN(C)C[C@@H]2Oc3ccc(NC(=O)CCC(F)(F)F)cc3C(=O)N([C@@H](C)CO)C[C@@H]2C)cc1	nt	nt	nt	nt	nt	nt	12	nt
Cn1c(=O)c2cc(NC(=O)CCc3cccc(Cl)c3)ccc2n1Cc1cccc(C(F)(F)F)c1	-2	4	-2	-19	4	-5	-9	14*
C=C(C)Cn1c2ccc(NC(=O)CCc3cccc(Cl)c3)cc2c(=O)n1C	nt	nt	10	-6	17	-14	-7	-3
Cc1cccc(NC(=S)NC(=O)C(c2ccccc2)c2ccccc2)n1	20*	7	-15	9	-6	-13	-12	33*
Cc1cccc(NC(=S)NC(=O)c2ccc(-c3ccccc3)cc2)n1	nt	nt	14	6	-7	19	-17	4

Screens deposited in PubChem by several laboratories.
